# Cyclic peptide permeability, from CycPeptMPDB

Values of Townsend et al. 2020, doi:10.26434/chemrxiv.13335941.v1, as listed in CycPeptMPDB.

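Conditions beyond the assay type are not listed; see the original paper. Other peptides of the study may be missing here. Peptides that the database sets to -10, its floor, are left out.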

PAMPA is the parallel artificial membrane permeability assay, which has no cells and reads passive diffusion. P is given in units of 10^-6 cm/s (from log10 values with two decimals); larger means faster passage.

SMILES,PAMPA (10^-6 cm/s)
CC(C)C[C@@H]1C(=O)N(C)[C@@H](CC(C)C)C(=O)N2CCC[C@@H]2C(=O)N(C)[C@@H](CC(C)C)C(=O)N[C@@H](Cc2ccccc2)C(=O)N[C@H](C)C(=O)N1C,10
CC(C)C[C@@H]1NC(=O)[C@H](C)N(C)C(=O)[C@@H]2CCCN2C(=O)[C@H](Cc2ccccc2)NC(=O)[C@@H](CC(C)C)N(C)C(=O)[C@H]2CCCN2C(=O)C[C@H](Cc2ccccc2)NC1=O,2.2
CC(C)C[C@@H]1C(=O)N[C@@H](Cc2ccccc2)C(=O)N2CCC[C@H]2C(=O)N(C)[C@H](C)C(=O)N(Cc2ccccc2)CC(=O)N[C@@H](Cc2ccccc2)CC(=O)N2CCC[C@@H]2C(=O)N1C,1.4
CC(C)C[C@@H]1NC(=O)[C@@H](C)N(C)C(=O)[C@H]2CCCN2C(=O)[C@H](Cc2ccccc2)NC(=O)[C@@H](CC(C)C)N(C)C(=O)[C@H]2CCCN2C(=O)[C@@H](CC(C)C)NC1=O,1.5
CCCN1CC(=O)N(C)[C@H](CC(C)C)C(=O)N[C@@H](CC(C)C)C(=O)N2CCC[C@H]2C(=O)N(C)[C@@H](CC(C)C)C(=O)N[C@@H](Cc2ccccc2)C(=O)N2CCC[C@@H]2C1=O,10
CC(C)C[C@@H]1NC(=O)[C@@H](CC(C)C)N(C)C(=O)C[C@H](Cc2ccccc2)NC(=O)[C@@H]2CCCN2C(=O)[C@H](Cc2ccccc2)NC(=O)[C@@H](CC(C)C)NC(=O)[C@@H]2CCCN2C1=O,2.4
CC(C)C[C@@H]1C(=O)N[C@H](CC(C)C)C(=O)N2CCC[C@H]2C(=O)N(Cc2ccccc2)CC(=O)N[C@@H](Cc2ccccc2)C(=O)N(C)[C@@H](C)C(=O)N1C,6.9
CC(C)C[C@@H]1C(=O)N[C@@H](Cc2ccccc2)C(=O)N2CCC[C@@H]2C(=O)N(C)[C@H](C)C(=O)N(C)[C@@H](CC(C)C)C(=O)N[C@H](CC(C)C)C(=O)N2CCC[C@H]2C(=O)N1C,5.9
CC(C)C[C@@H]1C(=O)N[C@H](CC(C)C)C(=O)N2CCC[C@@H]2C(=O)N(C)[C@@H](CC(C)C)C(=O)N[C@@H](Cc2ccccc2)C(=O)N[C@@H](C)C(=O)N1C,15
CC(C)C[C@H]1NC(=O)[C@@H]2CCCN2C(=O)[C@@H](CC(C)C)NC(=O)CN(Cc2ccccc2)C(=O)[C@H](C)NC(=O)[C@H](Cc2ccccc2)NC1=O,0.37
CC(C)C[C@@H]1C(=O)N[C@@H](Cc2ccccc2)C(=O)N2CCC[C@@H]2C(=O)N[C@@H](Cc2ccccc2)CC(=O)N[C@H](CC(C)C)C(=O)N[C@H](CC(C)C)C(=O)N2CCC[C@H]2C(=O)N1C,2.5
CC(C)C[C@@H]1NC(=O)C[C@H](Cc2ccccc2)NC(=O)[C@H](Cc2ccccc2)NC(=O)[C@@H](CC(C)C)NC(=O)[C@@H]2CCCN2C(=O)[C@H](CC(C)C)NC1=O,0.48
CC(C)C[C@H]1NC(=O)[C@@H](C)N(C)C(=O)[C@H]2CCCN2C(=O)[C@H](Cc2ccccc2)NC(=O)[C@H](CC(C)C)N(C)C(=O)[C@H]2CCCN2C(=O)CN(Cc2ccccc2)C1=O,1.7
CC(C)C[C@@H]1NC(=O)CN(Cc2ccccc2)C(=O)[C@H](C)N(C)C(=O)[C@@H]2CCCN2C(=O)[C@H](Cc2ccccc2)NC(=O)[C@H](CC(C)C)N(C)C(=O)[C@H]2CCCN2C1=O,3.7
CCCN1CC(=O)N(C)[C@H](CC(C)C)C(=O)N(Cc2ccccc2)CC(=O)N2CCC[C@@H]2C(=O)N(C)[C@@H](CC(C)C)C(=O)N[C@@H](Cc2ccccc2)C1=O,2.6
CC(C)C[C@@H]1NC(=O)[C@H](C)NC(=O)[C@@H]2CCCN2C(=O)[C@H](Cc2ccccc2)NC(=O)[C@H](CC(C)C)N(C)C(=O)[C@@H]2CCCN2C(=O)CN(Cc2ccccc2)C1=O,0.74
CC(C)C[C@@H]1NC(=O)C[C@H](Cc2ccccc2)NC(=O)[C@H](Cc2ccccc2)NC(=O)CN(Cc2ccccc2)C(=O)[C@@H]2CCCN2C(=O)[C@H](CC(C)C)NC1=O,1.2
CC(C)C[C@@H]1C(=O)N[C@@H](Cc2ccccc2)C(=O)N2CCC[C@H]2C(=O)N[C@@H](Cc2ccccc2)CC(=O)N(C)[C@@H](CC(C)C)C(=O)N[C@@H](Cc2ccccc2)CC(=O)N2CCC[C@@H]2C(=O)N1C,1.9
CC(C)C[C@@H]1NC(=O)[C@@H]2CCCN2C(=O)C[C@H](Cc2ccccc2)NC(=O)[C@H](CC(C)C)N(C)C(=O)[C@H](C)NC(=O)[C@H]2CCCN2C(=O)[C@H](Cc2ccccc2)NC1=O,2.2
CC(C)C[C@@H]1C(=O)N[C@@H](Cc2ccccc2)C(=O)N2CCC[C@H]2C(=O)N[C@@H](C)C(=O)N[C@H](CC(C)C)C(=O)N(C)[C@@H](CC(C)C)C(=O)N2CCC[C@H]2C(=O)N1C,2.5

2 of these entries, quoted again:

SMILES	PAMPA (10^-6 cm/s)
CC(C)C[C@H]1NC(=O)[C@@H]2CCCN2C(=O)[C@@H](CC(C)C)NC(=O)CN(Cc2ccccc2)C(=O)[C@H](C)NC(=O)[C@H](Cc2ccccc2)NC1=O	0.37
CC(C)C[C@@H]1NC(=O)C[C@H](Cc2ccccc2)NC(=O)[C@H](Cc2ccccc2)NC(=O)CN(Cc2ccccc2)C(=O)[C@@H]2CCCN2C(=O)[C@H](CC(C)C)NC1=O	1.2